Common to all, as to conditions: both partners purified
The target of assay [1] is T1, extracellular domain (ECD) NPR-C (27–481)-6His (human, UniProt P17342-2 27-481).
T1 construct: natriuretic peptide receptor C (NPR-C), human, extracellular domain, residues 27-481; Mainly monomer (~55 kDa) on non-reducing SDS-PAGE; the discussion says ~25% of the molecules are disulphide-bonded; The tag's end is read from the construct's name; also called (27–481)-6His (ECD); extracellular NPR-C; source: expressed and isolated at Peak Proteins, UK; not shown: 6His, C-terminal, kept
T1 sequence (looked up): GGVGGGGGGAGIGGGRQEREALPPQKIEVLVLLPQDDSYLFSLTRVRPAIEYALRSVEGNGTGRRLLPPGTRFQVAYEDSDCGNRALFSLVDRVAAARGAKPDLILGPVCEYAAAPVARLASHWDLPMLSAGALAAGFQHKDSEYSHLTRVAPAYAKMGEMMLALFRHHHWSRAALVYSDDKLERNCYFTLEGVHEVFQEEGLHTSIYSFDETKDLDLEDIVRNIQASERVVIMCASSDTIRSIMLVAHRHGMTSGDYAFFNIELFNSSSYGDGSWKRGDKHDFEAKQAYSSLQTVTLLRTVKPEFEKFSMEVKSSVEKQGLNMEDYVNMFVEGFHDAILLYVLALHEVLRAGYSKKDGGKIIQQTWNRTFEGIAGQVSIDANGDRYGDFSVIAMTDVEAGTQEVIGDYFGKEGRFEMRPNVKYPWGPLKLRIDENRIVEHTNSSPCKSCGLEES
The assay is described as follows: fluorescence polarisation; competition against 15 nM Flu-P19 probe; FL NPR-C 150 nM or ECD NPR-C 400 nM; competitor 4.89 nM-2.5 uM; HEPES buffer, 3% DMSO; Ki computed from IC50 with a web-based converter.

The target of assay [2] is T2, Human full-length (FL) NPR-C (27–541)-10His-Flag (human, UniProt P17342-2 27-540).
T2 construct: natriuretic peptide receptor C (NPR-C), human, residues 27-541; Primarily a disulphide-bonded dimer (~130 kDa) on non-reducing SDS-PAGE; The tag's end is read from the construct's name (27–541)-10His-Flag; also called natriuretic peptide receptor C; natriuretic peptide receptor type-C; source: expressed and isolated at Peak Proteins, UK; not shown: 10His, C-terminal, kept; Flag, C-terminal, kept
T2 sequence (looked up): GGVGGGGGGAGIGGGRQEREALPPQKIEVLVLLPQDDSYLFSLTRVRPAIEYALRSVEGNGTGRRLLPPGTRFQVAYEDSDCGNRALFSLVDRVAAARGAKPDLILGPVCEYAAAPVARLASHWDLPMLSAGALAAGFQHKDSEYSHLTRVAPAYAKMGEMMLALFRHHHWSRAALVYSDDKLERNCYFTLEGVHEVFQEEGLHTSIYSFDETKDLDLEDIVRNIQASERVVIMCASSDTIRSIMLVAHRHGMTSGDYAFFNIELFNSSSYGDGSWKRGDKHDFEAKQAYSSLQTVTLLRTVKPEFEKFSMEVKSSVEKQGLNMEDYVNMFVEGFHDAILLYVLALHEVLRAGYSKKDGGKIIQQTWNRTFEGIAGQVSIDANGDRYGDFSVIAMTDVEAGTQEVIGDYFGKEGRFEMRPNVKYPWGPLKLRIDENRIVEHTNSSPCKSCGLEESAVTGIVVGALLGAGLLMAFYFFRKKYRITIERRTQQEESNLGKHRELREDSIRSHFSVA
The assay is described as follows: SPR; BIAcore T200, CM5 chip; NPR-C amine-coupled (FL 10,000 RU, ECD 5,000 RU); CNP 0.5-8 nM, single-cycle sequential injections, 30 ul/min, 240 s each, dissociation 3,600 s; PBS-P with 1% DMSO; kinetic 1:1 (Langmuir) model. On the technique in general: SPR reads the build-up and loss of mass on a sensor chip optically.

For assay [3], the target named is T1, extracellular domain (ECD) NPR-C …. The description is as above.

Several values for one entry are separate records, joined by “and”; a condition that tells them apart may be missing. Equal values may be shown once.

A word on the IC50: it is the concentration that inhibits the measured activity by half. Lower therefore signals inhibition by little substance. The term Kd denotes the concentration at which binding is half-saturated. Higher therefore signals a looser complex.

B1: C-type natriuretic peptide (ligand)
chain: GLSKGCFGLKLDRIGSMSGLGC
modifications: intramolecular disulfide between the two Cys (CNP-22 Cys6-Cys22; precursor Cys110-Cys126). The paper does not print the form or species; CNP-22, the standard commercial CNP (Sigma-Aldrich), is taken …
B1: in assay [1], the IC50 is 54.9 nM and 60.3 nM. The results for the Kd in assay [2] and in assay [3] were 0.0036 nM and 0.0069 nM, respectively.
